Test results as given in PubChem BioAssay AID1645843 (ICCB-Longwood Screening Facility, Harvard Medical School, 2021).
Several values for one entry are separate records, joined by “and”; a condition that tells them apart may be missing. Equal entries are not always repeated. The entries are a selection whose mix differs from that of the whole data set. Activity calls are given as the source filed them.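 Rule for the calls: active = z-score of at least 1.8 in each of two replicates, scored against plate mean and spread of sample wells; inactive = the rest.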

Test: viability rescue of complex I mutant cybrids, primary screen, cell-based, galactose medium, ATP luminescence (AID 1645843);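 note: positive z means more ATP and so rescue of galactose-driven cybrid death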
Settings: complex I mutant cybrid cells, 72 h, stronger effect = higher value

Compound	z-score
CN(C(=O)Cc1ccc(Cl)c(Cl)c1)[C@@H]1CCCC[C@@H]1N1CCCC1	inactive: -0.63
CN(C(=O)Cc1ccc(Cl)c(Cl)c1)[C@H]1CCCC[C@@H]1N1CCCC1	inactive: -0.595 and inactive: -0.755 and inactive: -0.78
CN(C(=O)Cc1ccc(Cl)c(Cl)c1)[C@@H]1CCCC[C@H]1N1CCCC1	inactive: -0.635
CN(C(=O)Cc1ccc(Cl)c(Cl)c1)[C@@H]1CC[C@]2(CCCO2)C[C@H]1N1CCCC1	inactive: 0.34
CN(C(=O)Cc1ccccc1)[C@@H]1CC[C@]2(CCCO2)C[C@H]1N1CCCC1	inactive: -0.085
